As usually defined, the solubility is the concentration that dissolves in the medium under given conditions.

In patent US10428043B2, “Green oxidation catalytic system” (TRUSTEES OF BOSTON UNIVERSITY, priority 2014, dated 2019) one finds solubility data, which are given here for one substance.

The nature of this data set: Solubility. Format: physicochemical. The following applies: in methanol.

Turning to “mono-sodium salt of α-ketoglutarate [[α-KG][Na], reference compound]”, the solubility is listed as roughly 10 mM.
